According to PubChem BioAssay AID463141 (The Scripps Research Institute Molecular Screening Center, 2010):
Only a part is listed here, and it is no random draw. The source made the active and inactive calls.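 How the source made its calls: active means activation above the mean of all tested compounds plus 3 SD (cut at about 21% in these data); inactive means the rest.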

By UniProt entry, the sequences of proteins in these tests, tags left out.
UniProt P42574, whole entry D9A/D28A/D175A: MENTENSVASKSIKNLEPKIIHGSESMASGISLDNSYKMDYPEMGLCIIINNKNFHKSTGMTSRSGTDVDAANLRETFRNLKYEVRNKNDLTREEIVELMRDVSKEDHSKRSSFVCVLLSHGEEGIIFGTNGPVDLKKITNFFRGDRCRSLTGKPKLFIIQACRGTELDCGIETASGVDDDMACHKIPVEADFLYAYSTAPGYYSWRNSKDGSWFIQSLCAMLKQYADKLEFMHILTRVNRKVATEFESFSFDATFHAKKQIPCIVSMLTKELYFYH

The molecules below were run against Caspase-3 (Homo sapiens) (UniProt P42574) (assay: activators of human procaspase-3 D3A mutant, primary screen, biochemical, absorbance, PC-3 D3A mutant, single concentration (AID 463141;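 further: 0% = DMSO alone and 100% = DMSO wells spiked with extra 5 µM PC-3 D3A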)). Details: recombinant procaspase-3 D3A, Ac-DEVD-pNA absorbance 405 nm; at 8.5 µM; hits give high values.
In the case of `CCC(=O)N(c1ccccc1)C1(COC)CCN(CCc2cccs2)CC1`, the activation is reported as inactive: 4.63%.
For `CCC(=O)N(c1ccccc1)C1(COC)CCN(CCn2nnn(CC)c2=O)CC1`, the activation was inactive: 5.59%.
